{"sequences": {"note": "Chains of the proteins cited; added tags and fusions are not shown. Residues count along the entry.", "UniProt P35563, 24-483": "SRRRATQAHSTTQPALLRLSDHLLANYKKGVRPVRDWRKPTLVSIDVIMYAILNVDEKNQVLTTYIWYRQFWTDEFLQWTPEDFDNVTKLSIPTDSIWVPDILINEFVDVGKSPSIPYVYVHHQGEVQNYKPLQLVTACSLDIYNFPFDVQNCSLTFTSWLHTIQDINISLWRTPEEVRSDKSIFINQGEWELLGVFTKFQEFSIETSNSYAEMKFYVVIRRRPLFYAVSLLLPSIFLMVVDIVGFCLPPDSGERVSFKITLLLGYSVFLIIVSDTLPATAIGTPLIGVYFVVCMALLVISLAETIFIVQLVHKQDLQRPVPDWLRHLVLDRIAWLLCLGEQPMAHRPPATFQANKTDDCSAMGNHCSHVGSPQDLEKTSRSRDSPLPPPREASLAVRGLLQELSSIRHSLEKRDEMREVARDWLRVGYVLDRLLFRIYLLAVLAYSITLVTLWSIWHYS"}, "source": "patent US5530018A", "about": "“Meso-azanoradamantanes” (G. D. Searle & Co., priority 1994, dated 1996)", "biological_target": "T1, 5-HT3 receptor (Rattus norvegicus, UniProt P35563)", "T1 construct": "Brain cortices were obtained from male rats and a membrane fraction prepared by standard techniques; from tissue; host or cells: rat brain cortex membranes", "test": "5-HT3 radioligand receptor binding, [3H]-GR65630, rat brain cortex membranes", "details": "read-out: Effect of Compounds on [H]-GR65630 Bound (0.2 nM): Ki; 0.2 nM [3H]-GR65630, rat brain cortex membranes, 66 minutes at 22° C.", "description": "5-HT4 agonist activity was determined in the in vitro rat tunica muscularis mucosae (TMM) assay described herein. (Baxter et al., Naunyn Schmied Arch. Pharmacol, 1991, 343, 439). […] One with skill in the art could determine the activity of the compounds of the present invention using the methodology of these assays, described herein, without undue experimentation.\nProcedure: GR65630 binds to the 5-HT3 receptor. Brain cortices were obtained from male rats and a membrane fraction prepared by standard techniques. 0.04 mg of membrane prep was incubated with 0.2 nM [^3 H]-GR65630 for 66 minutes at 22° C. […] Membranes were filtered and washed 3 times and the filters were counted to determine [^3 H]-GR65630 specifically bound. [Kilpatrick GJ, Jones BJ and Tyers MB, Identification and Distribution of 5-HT3 Receptors in Rat Brain Using Radioligand Binding Assay, Nature 330, 746-748 (1987)].", "note": "pKi: −log10 of the molar value."}
{"smiles": "COc1cc(N)c(Cl)cc1C(=O)NC1CCN(CCCOc2ccc(F)cc2)CC1OC", "note": "(stereo not shown) [Cisapride]", "values": [{"measurement": "pKi", "value": 5.82}]}
